Results on two compounds are retold here after patent publication US20160075651A1, “GLYCOLIPID INHIBITION USING IMINOSUGARS” (UNITHER VIROLOGY, LLC, priority 2013, published 2016).

The chains behind the UniProt entries cited, without tags or fusion partners. Where a name states a change or a piece, a line headed by the entry shows the natural chain unless it says otherwise. Residues count along the entry.
UniProt P04062, 40-536 limits assumed: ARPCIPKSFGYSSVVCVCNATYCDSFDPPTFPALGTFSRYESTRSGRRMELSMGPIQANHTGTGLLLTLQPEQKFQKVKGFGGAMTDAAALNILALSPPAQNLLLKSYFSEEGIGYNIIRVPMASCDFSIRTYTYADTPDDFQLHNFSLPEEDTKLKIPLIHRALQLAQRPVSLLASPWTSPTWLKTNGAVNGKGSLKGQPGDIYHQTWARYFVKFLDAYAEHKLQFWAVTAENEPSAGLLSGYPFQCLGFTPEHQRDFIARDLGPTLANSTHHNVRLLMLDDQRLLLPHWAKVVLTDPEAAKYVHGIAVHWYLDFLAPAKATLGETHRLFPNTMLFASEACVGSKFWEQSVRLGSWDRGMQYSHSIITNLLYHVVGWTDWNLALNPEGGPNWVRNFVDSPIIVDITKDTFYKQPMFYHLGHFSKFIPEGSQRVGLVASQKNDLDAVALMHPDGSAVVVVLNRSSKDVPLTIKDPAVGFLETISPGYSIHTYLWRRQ
UniProt P04062, 40-536 N409S limits assumed: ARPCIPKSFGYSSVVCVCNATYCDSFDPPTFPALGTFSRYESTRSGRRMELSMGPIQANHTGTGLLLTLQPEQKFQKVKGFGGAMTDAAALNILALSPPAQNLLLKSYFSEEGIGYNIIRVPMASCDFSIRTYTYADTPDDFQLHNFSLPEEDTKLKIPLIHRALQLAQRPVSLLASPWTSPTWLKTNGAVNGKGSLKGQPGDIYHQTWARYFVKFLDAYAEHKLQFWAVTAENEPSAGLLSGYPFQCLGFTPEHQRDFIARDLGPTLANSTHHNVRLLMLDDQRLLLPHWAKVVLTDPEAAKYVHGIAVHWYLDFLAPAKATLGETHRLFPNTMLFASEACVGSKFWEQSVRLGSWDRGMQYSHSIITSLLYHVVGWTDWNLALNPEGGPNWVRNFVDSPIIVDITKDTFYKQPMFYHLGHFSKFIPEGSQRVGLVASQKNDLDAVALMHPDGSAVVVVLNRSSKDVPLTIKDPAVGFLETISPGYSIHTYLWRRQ
UniProt Q16739, whole entry: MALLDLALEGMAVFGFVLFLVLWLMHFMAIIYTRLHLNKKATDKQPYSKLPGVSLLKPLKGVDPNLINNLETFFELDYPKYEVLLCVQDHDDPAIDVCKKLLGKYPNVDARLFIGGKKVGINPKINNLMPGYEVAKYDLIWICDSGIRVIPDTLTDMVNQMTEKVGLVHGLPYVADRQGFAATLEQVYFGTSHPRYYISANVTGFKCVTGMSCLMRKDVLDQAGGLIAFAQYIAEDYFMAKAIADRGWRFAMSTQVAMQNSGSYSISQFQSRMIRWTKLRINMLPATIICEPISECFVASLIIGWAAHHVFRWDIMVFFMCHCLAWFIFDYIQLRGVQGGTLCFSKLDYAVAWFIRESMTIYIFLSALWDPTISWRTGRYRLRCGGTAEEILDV

Assay [1] deals with human placental β-glucocerebrosidase (Homo sapiens, UniProt P04062). The assay can be described thus: β-Glucocerebrosidase inhibition assay (4-methylumbelliferyl-β-glucoside, fluorogenic). Particulars: read-out: IC50 (μM), 50% inhibition of β-glucocerebrosidase activity; human placental enzyme, 0.5 mM 4-MU-β-glucoside, pH 5.2. Format: biochemical.
For assay [2], the target named is β-glucocerebrosidase (N370S mutant) (Homo sapiens, UniProt P04062, N409S). Description: β-Glucocerebrosidase activation (chaperone) assay in Gaucher N370S cells. It is filed as cell-based. Particulars: 3 days, versus untreated cells.
Assay [3] concerns the target ceramide glucosyltransferase (Homo sapiens, UniProt Q16739). Description: Ceramide glucosyltransferase cellular assay (GM3 reduction in HL60 cells, NP-HPLC). Format: cell-based. Particulars: read-out: IC50 (μM), 50% inhibition of ceramide glucosyltransferase activity in HL60 cells, 3 days, GM3 peak area.

As to `OC[C@@H]1[C@@H](O)[C@H](O)[C@@H](O)CN1CCCCCCCNc1ccc(F)cc1F`, the IC50 in assay [1] was 0.079 µM. Moreover, the “Activation fold at 10 μM” value in assay [2] worked out at 1.75 fold.
Take `CCCOCCCCCCN1C[C@H](O)[C@@H](O)[C@H](O)[C@H]1CO`: the half-maximal inhibitory concentration (IC50) in assay [1] came out at 7.57 µM; in assay [3] it was 10.3 µM. The “Activation fold at 10 μM” value in assay [2] is reported as 1.8 fold.
